Assay results: patent publication US10174040B2, “Pyrrolopyrimidine compound or salt thereof and compositions containing the pyrrolopyrimidine compound or salt thereof” (TAIHO PHARMACEUTICAL CO., LTD., priority 2014, dated 2019)

What was measured:
[1] = system: Human colon cancer HCT-116 cell lines; test: Antitumor effect on tumor cells transplanted into mice 2 (HCT-116, tumor volume); assay type: in vivo, BALB/cAJcl-nu/nu mice; settings: HCT-116 in nude mice, hydrochloride compound of Example 55
Description: Human colon cancer HCT-116 cell lines were washed in PBS and suspended at a concentration of 4×10^7 cells/mL. […] TV (mm3)=(length×width^2)/2, wherein the unit of length and width is mm (equation D). When the TV reached 100 to 300 mm3, the animals were assigned to each group in accordance with a stratified randomization procedure. The day was considered day 1, the TV on the day was considered TV1, and the body weight on the day was considered BW1. A required amount of the test compound was weighed to prepare an administration solution.

[2] = Body weight change, antitumor test 2 (HCT-116 mice); assay type: in vivo, BALB/cAJcl-nu/nu mice; settings: HCT-116 nude mice, Test Example 6
Description: Human colon cancer HCT-116 cell lines were washed in PBS and suspended at a concentration of 4×10^7 cells/mL.
TV (mm3)=(length×width^2)/2, wherein the unit of length and width is mm (equation D).
When the TV reached 100 to 300 mm3, the animals were assigned to each group in accordance with a stratified randomization procedure. The day was considered day 1, the TV on the day was considered TV1, and the body weight on the day was considered BW1.
A required amount of the test compound was weighed to prepare an administration solution.

Structure (SMILES): CCOc1cccc(F)c1C#Cc1cn([C@@H]2O[C@H](CNS(N)(=O)=O)[C@@H](O)[C@H]2O)c2ncnc(N)c12 [Example 55, 4-Amino-7-[(2R,3R,4S,5R)-3,4-dihydroxy-5-[(sulfamoylamino)methyl]tetrahydrofuran-2-yl]-5-[2-(2-ethoxy-6-fluoro-phenyl)ethynyl]pyrrolo[2,3-d]pyrimidine]
- RTV comparison with Comparative Example ([1]; Aspin-Welch's t-test): significantly lower than that of the Comparative Example
- RTV15 comparison with control ([1]; Dunnett's test): significantly lower than that of the control
- change of the body weight compared with the control [2]: within an acceptable degree
